# Experimental data taken from patent publication US20230190933A1, “Immunologically Active Peptide-Biliverdin Conjugate, Preparation Method Therefor and Application Thereof” (priority 2020, published 2023).
# How the values were obtained:
# [1] = tested on: important organs (heart, liver, spleen, lung, kidney); conditions: B16-F10 model, intravenously every other day for 5 times, 2 mg kg^-1, after 30 days
# [2] = tested on: mouse skin melanoma cells B16-F10; conditions: B16-F10, different concentration gradients, in the dark
Substance,influence on important organs [1],cytotoxicity (cell activity) [2]
biliverdin-Tb-VHFFKNIVTPTP conjugate [Example 17],does not cause serious damage to important organs,–
biliverdin-Zn-NYSKPTDRQYHF conjugate [Example 3],–,no obvious cytotoxicity
